{"source": "patent US4015974A", "about": "“Amido phosphorothiolates” (priority 1972, dated 1977)", "system": "tobacco cut worm (Spondoptera litura)", "experiment": "Lethal effect on tobacco cut worm (Table 5)", "type": "in vivo", "conditions": "tobacco cutworm, larvae on chinese cabbage leaves, 48 h", "experimental": "The present compounds of an emulsifiable concentrate type were applied to leaves of chinese cabbage in the form of an 1000 fold dilute solution. After air-drying, third to fourth instar larvae of tobacco cut worm were released and after 48 hours the death and alive were observed."}
{"smiles": "CCOP(=S)(Oc1ccc([N+](=O)[O-])cc1)c1ccccc1", "note": "(stereo not shown) [EPN, reference compound]", "values": [{"measurement": "Mortality", "result": 70.0, "unit": "%"}]}
